Here are results for one substance from patent US20210094998A1.

Sequences of proteins named here, by UniProt entry; tags and fusion partners are left off. A change or cut given only in a name is not applied to a line headed by its entry.
UniProt P50391: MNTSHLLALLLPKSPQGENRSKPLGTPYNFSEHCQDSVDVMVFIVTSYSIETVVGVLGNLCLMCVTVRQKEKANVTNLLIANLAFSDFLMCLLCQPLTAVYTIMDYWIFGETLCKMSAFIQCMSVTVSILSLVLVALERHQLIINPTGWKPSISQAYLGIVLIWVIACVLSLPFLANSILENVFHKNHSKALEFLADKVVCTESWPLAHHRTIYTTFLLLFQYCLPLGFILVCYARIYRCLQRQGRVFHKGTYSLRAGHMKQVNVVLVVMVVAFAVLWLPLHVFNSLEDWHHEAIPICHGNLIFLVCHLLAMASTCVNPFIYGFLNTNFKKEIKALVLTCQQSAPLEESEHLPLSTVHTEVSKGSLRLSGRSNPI

The experiment concerns the target human Y4 receptor (human) (UniProt P50391). Put plainly: cell-based or functional assay.

Consider PYY3-36 (peptide), for which the EC50, cAMP assay (LANCE) on receptor-expressing cells is 137 nM.
